ChEMBL document CHEMBL4431312, “Development of an Orally Available and Central Nervous System (CNS) Penetrant Toxoplasma gondii Calcium-Dependent Protein Kinase 1 (TgCDPK1) Inhibitor with Minimal Human Ether-a-go-go-Related Gene (hERG) Activity for the Treatment of Toxoplasmosis” (J Med Chem, 2016)

Target: T1, Calmodulin-domain protein kinase 1 (Toxoplasma gondii, UniProt Q9BJF5)
T1 sequence (Q9BJF5 whole entry): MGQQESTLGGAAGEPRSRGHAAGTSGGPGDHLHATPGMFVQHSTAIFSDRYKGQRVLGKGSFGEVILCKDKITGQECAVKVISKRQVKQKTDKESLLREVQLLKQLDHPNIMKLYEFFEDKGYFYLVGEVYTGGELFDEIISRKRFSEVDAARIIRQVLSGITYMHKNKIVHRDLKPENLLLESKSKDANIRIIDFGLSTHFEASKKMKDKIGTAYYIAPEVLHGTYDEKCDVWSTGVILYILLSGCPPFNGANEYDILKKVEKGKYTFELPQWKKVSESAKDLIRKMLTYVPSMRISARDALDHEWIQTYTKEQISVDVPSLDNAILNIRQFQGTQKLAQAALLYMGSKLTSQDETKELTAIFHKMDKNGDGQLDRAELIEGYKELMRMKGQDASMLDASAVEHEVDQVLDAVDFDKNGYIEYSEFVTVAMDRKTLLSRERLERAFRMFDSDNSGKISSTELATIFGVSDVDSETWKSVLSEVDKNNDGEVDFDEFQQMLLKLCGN

COCCOc1ccc2cc(-c3nn(CC4CCN(C)CC4)c4ncnc(N)c34)ccc2c1
IC50: 15 nM
